# Yeast mating assay B: variants of the scFv Ab-14

Antigen: PDVDLGDISGINAS, a 14-residue peptide of the SARS-CoV-2 spike HR2 region.

Ab-14 is the parent antibody, in scFv form: VH, then three GGGGS repeats, then VL. The light chain is unchanged in all variants.
VH: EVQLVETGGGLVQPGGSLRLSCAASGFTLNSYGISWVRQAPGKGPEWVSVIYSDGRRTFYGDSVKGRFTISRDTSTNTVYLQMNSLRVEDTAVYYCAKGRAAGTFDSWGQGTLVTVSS
VL: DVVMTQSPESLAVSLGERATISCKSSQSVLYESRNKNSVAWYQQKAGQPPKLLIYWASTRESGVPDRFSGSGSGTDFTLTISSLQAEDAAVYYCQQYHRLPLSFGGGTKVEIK

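Phage display of a naive human antibody library on the peptide gave the parent. These sequences belong to a second round, designed from the earlier measurements on random variants of the parent. Their group label is 14H_En_Gibbs (En: ensemble of fine-tuned language models; Gibbs: Gibbs sampling). The assay is AlphaSeq: two haploid yeast populations carry antibody and antigen on their surface. Mating (16 h, 30 °C) was followed by selection of diploids and sequencing of their barcodes. A regression on co-assayed BCL2-family reference pairs converts the normalised counts of each replicate to an apparent Kd. There are six technical replicates.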

The parent's heavy chain CDRs are GFTLNSYGIS, VIYSDGRRTFYGDSVK, GRAAGTFDS; each variant's own CDRs replace them letter for letter. The read-out is the apparent dissociation constant on a log10 scale (nM): the lower, the stronger. An entry "nd" has no value in the source: the pair was not observed among the diploids in that replicate. This suggests poor binding but is not conclusive. The range of this assay differs from that of the first round, and the authors advise against merging the two. In the paper, a design with two or fewer of six values counts as a poor binder. The parent sequence was in this pool as ten entries: three were never detected, three once, and four in most replicates, with averages from 0.34 to 2.37. Background: pairings of all heavy chain designs with three empty control strains gave a value in 1% of cases (median 2.08, 5th percentile 0.84). Values in that range, when seen in few replicates, are hard to tell from nonspecific mating. Also given: how often the same scFv was detected with the empty control strains, with their mean in brackets.

| # | CDR-H1 | CDR-H2 | CDR-H3 | replicates, log10 nM | signal with controls |
|---|---|---|---|---|---|
| 1 | GFDIEEYGIS | VIYADGKRMAYSNKVK | GLMAGTMID | nd nd nd nd nd nd | 0 of 18 |
| 2 | GFSIDEYGIS | VIYADGMRARYSDAVK | GVKVGNVIM | nd nd 1.90 nd nd nd | 0 of 18 |
| 3 | GEDLEEYGIS | VIYADGMRQYYAANVK | GDINDVDDL | nd nd nd nd nd nd | 0 of 18 |
| 4 | GPNLQEYGIS | VIYADGIRSAYKDDVK | GQHAGYFLE | nd nd nd nd nd nd | 0 of 18 |
| 5 | GFDVDQYGIS | VIYADGKRSMYADKVK | GVIADGMMV | nd nd nd nd nd nd | 0 of 18 |
| 6 | GFVFDEYGIS | VIYADGIRQFYQDKVK | GEVTGMFDT | nd nd nd nd nd nd | 0 of 18 |
| 7 | GYSLDDYGIS | VIYADGKRTSYAEDVK | GNNGGSFMN | nd nd nd nd nd nd | 0 of 18 |
| 8 | GFDIEDYGIS | VIYADGVRAMYKESFK | GQIAGTFLI | nd nd nd nd nd 0.99 | 0 of 18 |
| 9 | GFDLEEYGIS | VIYADGIRCSYAQAFK | GKNGQVFAV | nd nd nd nd nd nd | 1 of 18 (1.07) |
| 10 | GFDLQEYGVS | VIYADGRRAQYASKFK | GNHSGYFDK | nd nd nd nd nd nd | 0 of 18 |
| 11 | GQNLDEYGIS | VIYADGMRKWYADDVK | GNMSAGVIT | nd nd nd nd nd nd | 0 of 18 |
| 12 | GFGLDEYGIS | VIYADGSRVFYADTVK | GLLGILKVV | nd nd nd nd nd nd | 0 of 18 |
| 13 | GFDLDEYGIS | VIYADGMRVSYDQNVK | GHGGGSFNF | nd nd nd nd nd nd | 1 of 18 (2.42) |
| 14 | GFDLEKYGIS | VIYADGIRKEYDQSVK | GQNAGAFTI | 2.67 nd nd nd nd nd | 0 of 18 |
| 15 | GFTIDEYGIS | VIYADGQRVAYDEKFK | GMLVGTFDQ | 1.50 nd 2.23 nd nd 3.00 | 0 of 18 |
| 16 | GQNLDEYGIS | VIYADGMRKWYADDVK | GISSAFVII | nd nd nd nd nd nd | 0 of 18 |
| 17 | GFDLEEMGIS | VIYADGARTVYTNSVK | GSFGGQMNV | 2.79 1.68 2.03 2.36 1.62 nd | 0 of 18 |
| 18 | GFDLMEYGIS | VIYADGKRKAYENKVK | GGSVRSVVI | 0.64 -0.08 0.39 -0.22 0.19 0.05 | 0 of 18 |
| 19 | GQQLDEYGIH | VIYADGVRTSYTNQVK | GEHAGTFMQ | nd nd nd nd nd nd | 0 of 18 |
| 20 | GFDIDEYGIS | VIYADGLRVFYKNRVK | GMYSGVIDM | nd nd nd nd nd nd | 0 of 18 |
| 21 | GKHLDEYGIS | VIYADGQRVFYSNTVK | GIQGFTVDV | nd nd nd nd nd nd | 0 of 18 |
| 22 | GFDLGEYGIS | VIYADGMRSAYTDDVK | GAGANIITH | nd nd nd nd nd nd | 0 of 18 |
| 23 | GVNLDEYGIS | VIYADGVRQHYTDSVK | GTHGDFGVV | nd nd nd nd nd nd | 0 of 18 |
| 24 | GQDLQEYGVS | VIYADGMRTAYADSFK | GQSLGNIVQ | nd nd nd 2.70 nd nd | 0 of 18 |
| 25 | GQGLEDYGIS | VIYADGMRTYYAPNVK | GEVNGVMDI | nd nd nd nd nd nd | 0 of 18 |
| 26 | GFNLNEYGIS | VIYADGRRRAVIDQVK | GLVSFDFDL | nd nd nd nd nd nd | 0 of 18 |
| 27 | GFSLENYGIS | VIYADGMRTAYANSVK | GENDGYDTT | nd nd nd nd nd nd | 0 of 18 |
| 28 | GFPIDEYGIS | VIYADGRRTVYSDNVK | GNYGASGKI | nd nd nd nd nd nd | 0 of 18 |
| 29 | GEDLEEYGIS | VIYADGMRQYYANSVK | GDINDVDDL | nd nd nd nd nd nd | 1 of 18 (1.81) |
| 30 | GFNLEEYGIS | VIYADGKRSSVSDSVK | GQLGNAFDM | nd nd nd nd nd nd | 0 of 18 |
| 31 | GFEIQEFGIS | VIYADGERTNYAENVK | GTLAGTFTT | nd 2.15 2.74 2.59 2.51 1.69 | 1 of 18 (2.59) |
| 32 | GADLNEMGIS | VIYADGDRKAYQDDVK | GDVSGDFDE | nd nd nd nd nd nd | 0 of 18 |
| 33 | GFKLDEYGIS | VIYADGHRVAYSQKVK | GDNVGAFFE | 0.13 -0.27 0.18 -0.34 -0.02 -0.15 | 0 of 18 |
| 34 | GQDINEFGIS | VIYADGIRNQYADSVK | GQNGFFFDI | nd nd nd nd nd nd | 0 of 18 |
| 35 | GFNLDEYGIS | VIYADGQRVQYDDPVK | GEQAGTVMV | nd nd nd nd nd nd | 1 of 18 (2.65) |
| 36 | GFDIEEYGIS | VIYADGLRTMVQNSVK | GELGQKFIV | nd nd nd nd nd nd | 0 of 18 |
| 37 | GQNLDEYGIS | VIYADGMRKWYADDVK | GNMSAGVIA | nd nd nd nd nd nd | 0 of 18 |
| 38 | GFKLDEYGIS | VIYADGQRKHYADSVK | GQIDVYYTA | nd nd nd 5.43 3.60 nd | 1 of 18 (3.12) |

A selection of 3 entries from above:

CDR-H1,CDR-H2,CDR-H3,"replicates, log10 nM",signal with controls
GFVFDEYGIS,VIYADGIRQFYQDKVK,GEVTGMFDT,nd nd nd nd nd nd,0 of 18
GFTIDEYGIS,VIYADGQRVAYDEKFK,GMLVGTFDQ,1.50 nd 2.23 nd nd 3.00,0 of 18
GFNLDEYGIS,VIYADGQRVQYDDPVK,GEQAGTVMV,nd nd nd nd nd nd,1 of 18 (2.65)

Values reported by Li et al. 2023, doi:10.1038/s41467-023-39022-2 (FLAb copy).